Assay results taken from article PMC5511785 (Journal of pharmaceutical sciences, 2017).
Where “and” joins values, the source holds several entries; their conditions need not be identical. Equal values may be shown once.

Chains of the proteins cited; added tags and fusions are not shown. Lines headed by an entry give the natural chain unless they say otherwise; changes in a name come on top.
UniProt Q9Y6L6: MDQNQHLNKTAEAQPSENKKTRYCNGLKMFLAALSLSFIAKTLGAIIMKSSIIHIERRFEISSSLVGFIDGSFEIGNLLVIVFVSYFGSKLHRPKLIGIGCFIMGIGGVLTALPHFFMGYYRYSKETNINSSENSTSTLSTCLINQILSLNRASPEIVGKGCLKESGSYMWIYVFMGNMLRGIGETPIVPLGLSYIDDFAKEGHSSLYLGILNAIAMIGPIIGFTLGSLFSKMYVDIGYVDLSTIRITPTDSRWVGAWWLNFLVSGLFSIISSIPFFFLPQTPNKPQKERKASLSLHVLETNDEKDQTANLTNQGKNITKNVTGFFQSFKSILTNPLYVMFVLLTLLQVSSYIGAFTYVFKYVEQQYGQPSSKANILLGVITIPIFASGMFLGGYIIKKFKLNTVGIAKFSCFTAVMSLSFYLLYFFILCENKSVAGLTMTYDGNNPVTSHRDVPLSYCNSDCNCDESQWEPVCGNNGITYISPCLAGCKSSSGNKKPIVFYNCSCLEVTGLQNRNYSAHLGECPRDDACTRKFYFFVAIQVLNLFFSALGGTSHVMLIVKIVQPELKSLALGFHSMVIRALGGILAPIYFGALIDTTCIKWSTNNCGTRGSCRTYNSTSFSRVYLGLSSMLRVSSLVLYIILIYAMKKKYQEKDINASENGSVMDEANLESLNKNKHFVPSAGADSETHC

Assays:
[1] = molecular target: T1, OATP1B1 (Homo sapiens, UniProt Q9Y6L6); experiment: OATP1B1-mediated [3H]-E1S accumulation; assay type: cell-based; conditions: 1 h
[2] = system: human sandwich-cultured hepatocytes (SCH); experiment: [3H]-pitavastatin accumulation in human sandwich-cultured hepatocytes; assay type: cell-based; conditions: 1 h pre-incubation with 10 μM, washed, pitavastatin 1 μM, 0.5 min
[3] = system: human sandwich-cultured hepatocytes (SCH); experiment: [3H]-CCK-8 accumulation in human sandwich-cultured hepatocytes; assay type: cell-based; conditions: 1 h pre-incubation with 10 μM, washed, CCK-8 1 μM, 3 min
[4] = molecular target: T1, OATP1B1; conditions: pre+co-incubation vs co-incubation
[5] = system: HEK293-OATP1B1 and -1B3 cells; conditions: 1 h treatment; rifampicin up to 25 μM, dasatinib up to 20 μM
[6] = rifampicin with pravastatin; cited from earlier work

SMILES: CO[C@H]1/C=C/O[C@@]2(C)Oc3c(C)c(O)c4c(O)c(c(/C=N/N5CCN(C)CC5)c(O)c4c3C2=O)NC(=O)/C(C)=C\C=C\[C@H](C)[C@H](O)[C@@H](C)[C@@H](O)[C@@H](C)[C@H](OC(C)=O)[C@@H]1C [Rifampicin]
- [3H]-E1S accumulation, fold of control ([1]; pre-incubation 10 μM): 0.70 ± 0.16 fold of control
- [3H]-E1S accumulation, fold of control ([1]; pre-incubation 25 μM): 0.23 ± 0.09 fold of control
- [3H]-pitavastatin accumulation, fold of CTL [2]: 0.66 ± 0.07 fold of CTL
- [3H]-CCK-8 accumulation, fold of CTL [3]: 0.37 ± 0.17 fold of CTL
- Fold reduction of Ki/IC50 against OATP1B1 by pretreatment [4]: 3 fold and ~ 3 fold
- LDH cytotoxicity [5]: negligible toxicity
- Cmax ratio of pravastatin in a clinical study [6]: 2.7
